Patent publication US10800772B2 (Gilead Sciences, Inc., priority 2016, dated 2020)

Experiment: not given
Settings: human, microsomes

Row | Molecule | Hum MS stability t½ [h]
1 | (S)-2-(2-(3-(1- ((R)-1-acetyl- pyrrolidin-3-yl) piperidin-4-yl)- 1-methyl-1H- pyrazolo[4,3-b] pyridin-5-yl)-7- (4-chlorophenyl)- 5-methylbenzo[d] thiazol-6-yl)-2- (tert-butoxy) acetic acid [Compound 169] | 0.5
2 | (S)-2-(tert-butoxy)- 2-(7-(4-chloro- phenyl)-2-(3-(1-(2- (dimethylamino) ethyl)piperidin-4- yl)-1-methyl-1H- indazol-5-yl)-5- methylbenzo[d] thiazol-6-yl) acetic acid [Compound 130] | 6.58
3 | (S)-2-(tert-butoxy)- 2-(7-(4-chloro- phenyl)-2-(3-((R)- hexahydropyrazino [2,1-c][1,4]oxazin- 8(1H)-yl)-1-methyl- 1H-indazol-5-yl)- 5-methylbenzo[d] thiazol-6-yl)acetic acid [Compound 135] | 2.75

Experiment: Hum MS stability (human microsomal stability half-life)
Settings: not given

Row | Molecule | Hum MS stability t½ [h]
4 | COCCN1CCN(c2nn(C)c3ccc(-c4nc5cc(C)c([C@H](OC(C)(C)C)C(=O)O)c(-c6ccc(Cl)cc6)c5s4)cc23)C1=O [Compound 79, (S)-2-(tert-butoxy)-2-(7-(4-chlorophenyl)-2-(3-(3-(2-methoxyethyl)-2-oxoimidazolidin-1-yl)-1-methyl-1H-indazol-5-yl)-5-methylbenzo[d]thiazol-6-yl)acetic acid] | 6.58
5 | CCN1CCN(c2nn(C)c3ccc(-c4nc5cc(C)c([C@H](OC(C)(C)C)C(=O)O)c(-c6ccc(Cl)cc6)c5s4)cc23)C1=O [Compound 82, (S)-2-(tert-butoxy)-2-(7-(4-chlorophenyl)-2-(3-(3-ethyl-2-oxoimidazolidin-1-yl)-1-methyl-1H-indazol-5-yl)-5-methylbenzo[d]thiazol-6-yl)acetic acid] | 6.58
6 | Cc1cc2nc(-c3ccc4c(c3)c(N3CCN(C)CC3=O)nn4C)sc2c(-c2ccc(Cl)cc2)c1[C@H](OC(C)(C)C)C(=O)O [Compound 87, (S)-2-(tert-butoxy)-2-(7-(4-chlorophenyl)-5-methyl-2-(1-methyl-3-(4-methyl-2-oxopiperazin-1-yl)-1H-indazol-5-yl)benzo[d]thiazol-6-yl)acetic acid] | 6.58
7 | Cc1cc2nc(-c3ccc4c(c3)c(N3CC(N5CCOCC5)C3)nn4C)sc2c(-c2ccc(Cl)cc2)c1[C@H](OC(C)(C)C)C(=O)O [Compound 88, (S)-2-(tert-butoxy)-2-(7-(4-chlorophenyl)-5-methyl-2-(1-methyl-3-(3-morpholinoazetidin-1-yl)-1H-indazol-5-yl)benzo[d]thiazol-6-yl)acetic acid] | 6.58
8 | Cc1cc2nc(-c3ccc4c(c3)c(N3CC(N(C)C)C3)nn4C)sc2c(-c2ccc(Cl)cc2)c1[C@H](OC(C)(C)C)C(=O)O [Compound 90, (S)-2-(tert-butoxy)-2-(7-(4-chlorophenyl)-2-(3-(3-(dimethylamino)azetidin-1-yl)-1-methyl-1H-indazol-5-yl)-5-methylbenzo[d]thiazol-6-yl)acetic Acid] | 6.58
9 | Cc1cc2nc(-c3ccc4c(c3)c(N3CC[C@H](N(C)C)C3)nn4C)sc2c(-c2ccc(Cl)cc2)c1[C@H](OC(C)(C)C)C(=O)O [Compound 93, (S)-2-(tert-butoxy)-2-(7-(4-chlorophenyl)-2-(3-((S)-3-(dimethylamino)pyrrolidin-1-yl)-1-methyl-1H-indazol-5-yl)-5-methylbenzo[d]thiazol-6-yl)acetic acid] | 6.58
10 | Cc1cc2nc(-c3ccc4c(c3)c(N3CCN(C5COC5)CC3)nn4C)sc2c(-c2ccc(Cl)cc2)c1[C@H](OC(C)(C)C)C(=O)O [Compound 104, (S)-2-(tert-butoxy)-2-(7-(4-chlorophenyl)-5-methyl-2-(1-methyl-3-(4-(oxetan-3-yl)piperazin-1-yl)-1H-indazol-5-yl)benzo[d]thiazol-6-yl)acetic acid] | 6.58
11 | Cc1cc2nc(-c3cnc4c(c3)c(C3CCN(C)CC3)cn4C)sc2c(-c2ccc(Cl)cc2)c1[C@H](OC(C)(C)C)C(=O)O [Compound 106, (S)-2-(tert-butoxy)-2-(7-(4-chlorophenyl)-5-methyl-2-(1-methyl-3-(1-methylpiperidin-4-yl)-1H-pyrrolo[2,3-b]pyridin-5-yl)benzo[d]thiazol-6-yl)acetic acid] | 6.58
12 | COCC(C)N1CC(c2nn(C)c3ccc(-c4nc5cc(C)c([C@H](OC(C)(C)C)C(=O)O)c(-c6ccc(Cl)cc6)c5s4)cc23)C1 (stereo partly drawn) [Compound 124, (2S)-2-(tert-butoxy)-2-(7-(4-chlorophenyl)-2-(3-(1-(1-methoxypropan-2-yl)azetidin-3-yl)-1-methyl-1H-indazol-5-yl)-5-methylbenzo[d]thiazol-6-yl)acetic acid] | 6.58
13 | CCN1CCC(c2nn(C)c3ccc(-c4nc5cc(C)c([C@H](OC(C)(C)C)C(=O)O)c(-c6ccc(Cl)cc6)c5s4)cc23)CC1 [Compound 126, (S)-2-(tert-butoxy)-2-(7-(4-chloro-phenyl)-2-(3-(1-ethylpiperidin-4-yl)-1-methyl-1H-indazol-5-yl)-5-methylbenzo[d]thiazol-6-yl) acetic acid] | 6.58
14 | Cc1cc2nc(-c3ccc4c(c3)c(N3CCCN(C)CC3)nn4C)sc2c(-c2ccc(Cl)cc2)c1[C@H](OC(C)(C)C)C(=O)O [Compound 132, (S)-2-(tert-butoxy)-2-(7-(4-chloro-phenyl)-5-methyl-2-(1-methyl-3-(4-methyl-1,4-diazepan-1-yl)-1H-indazol-5-yl)benzo[d]thiazol-6-yl)acetic acid] | 6.58
15 | Cc1cc2nc(-c3ccc4c(c3)c(N3CCN5C(=O)COC[C@@H]5C3)nn4C)sc2c(-c2ccc(Cl)cc2)c1[C@H](OC(C)(C)C)C(=O)O [Compound 138, (S)-2-(tert-butoxy)-2-(7-(4-chloro-phenyl)-5-methyl-2-(1-methyl-3-((S)-4-oxohexa-hydropyrazino[2,1-c][1,4]oxazin-8 (1H)-yl)-1H-indazol-5-yl)benzo[d]thiazol-6-yl)acetic acid] | 6.58
16 | COC(=O)N1CC(N2CCC(c3nn(C)c4ccc(-c5nc6cc(C)c([C@H](OC(C)(C)C)C(=O)O)c(-c7ccc(Cl)cc7)c6s5)nc34)CC2)C1 [Compound 167, (S)-2-(tert-butoxy)-2-(7-(4-chloro-phenyl)-2-(3-(1-(1-(methoxycarbonyl)azetidin-3-yl)piperidin-4-yl)-1-methyl-1H-pyrazolo[4,3-b]pyridin-5-yl)-5-methylbenzo[d]thiazol-6-yl) acetic acid] | 6.58
17 | Cc1cc2nc(-c3ccc4c(n3)c(C3CCN(C5CN(C(=O)OC(C)C)C5)CC3)nn4C)sc2c(-c2ccc(Cl)cc2)c1[C@H](OC(C)(C)C)C(=O)O [Compound 168, (S)-2-(tert-butoxy)-2-(7-(4-chloro-phenyl)-2-(3-(1-(1-(isopropoxy-carbonyl)azetidin-3-yl)piperidin-4-yl)-1-methyl-1H-pyrazolo[4,3-b]pyridin-5-yl)-5-methylbenzo[d]thiazol-6-yl) acetic acid] | 6.58
18 | Cc1cc2nc(-c3ccc4c(n3)c(N3CCN(C)CC3)nn4C)sc2c(-c2ccc(Cl)cc2)c1[C@H](OC(C)(C)C)C(=O)O [Compound 196, (S)-2-(tert-butoxy)-2-(7-(4-chloro-phenyl)-5-methyl-2-(1-methyl-3-(4-methylpiperazin-1-yl)-1H-pyrazolo [4,3-b]pyridin-5-yl)benzo[d]thiazol-6-yl)acetic acid] | 6.58
19 | Cc1cc2nc(-c3ccc4c(c3)c(N3CCN(C5(C)COC5)CC3)nn4C)sc2c(-c2ccc(Cl)cc2)c1[C@H](OC(C)(C)C)C(=O)O [Compound 207, (S)-2-(tert-butoxy)-2-(7-(4-chloro-phenyl)-5-methyl-2-(1-methyl-3-(4-(3-methyloxetan-3-yl)piperazin-1-yl)-1H-indazol-5-yl)benzo[d]thiazol-6-yl)acetic acid] | 6.58
